Measured values: ChEMBL document CHEMBL6182893, “Discovery of non-electrophilic TRPA1 channel agonists with anti-nociceptive effects via rapid current desensitization” (Eur J Med Chem, 2025)
The source made the active and inactive calls. The rule behind the calls is not given here.

Sequences of proteins named here, by UniProt entry; tags and fusion partners are left off.
UniProt Q7Z2W7, whole entry, looked up: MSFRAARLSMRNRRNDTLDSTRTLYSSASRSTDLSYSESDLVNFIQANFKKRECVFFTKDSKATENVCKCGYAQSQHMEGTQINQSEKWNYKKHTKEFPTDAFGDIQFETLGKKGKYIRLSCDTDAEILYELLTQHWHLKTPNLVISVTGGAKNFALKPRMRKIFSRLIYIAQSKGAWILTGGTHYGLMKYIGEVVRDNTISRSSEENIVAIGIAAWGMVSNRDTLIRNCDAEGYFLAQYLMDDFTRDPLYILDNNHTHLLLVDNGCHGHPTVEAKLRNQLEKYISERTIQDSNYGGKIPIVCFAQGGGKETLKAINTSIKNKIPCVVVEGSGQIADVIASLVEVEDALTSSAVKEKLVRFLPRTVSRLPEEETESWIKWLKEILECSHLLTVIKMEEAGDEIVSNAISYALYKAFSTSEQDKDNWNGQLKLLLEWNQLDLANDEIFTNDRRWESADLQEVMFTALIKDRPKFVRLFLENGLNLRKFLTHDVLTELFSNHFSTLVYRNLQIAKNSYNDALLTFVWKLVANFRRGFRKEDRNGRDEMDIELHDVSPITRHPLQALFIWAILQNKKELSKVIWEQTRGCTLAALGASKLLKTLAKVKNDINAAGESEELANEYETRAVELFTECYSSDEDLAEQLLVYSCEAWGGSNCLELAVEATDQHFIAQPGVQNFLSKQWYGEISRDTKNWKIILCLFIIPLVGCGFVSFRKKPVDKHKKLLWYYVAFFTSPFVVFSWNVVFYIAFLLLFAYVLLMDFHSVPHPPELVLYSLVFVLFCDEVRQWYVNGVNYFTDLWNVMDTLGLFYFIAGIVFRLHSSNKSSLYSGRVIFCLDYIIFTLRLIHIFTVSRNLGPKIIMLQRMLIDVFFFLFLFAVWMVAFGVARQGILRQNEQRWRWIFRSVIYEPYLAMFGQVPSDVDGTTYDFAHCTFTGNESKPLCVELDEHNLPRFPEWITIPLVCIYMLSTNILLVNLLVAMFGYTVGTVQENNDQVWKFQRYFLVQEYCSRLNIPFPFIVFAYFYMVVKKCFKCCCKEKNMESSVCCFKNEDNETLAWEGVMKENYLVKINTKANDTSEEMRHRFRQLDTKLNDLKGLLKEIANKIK

How the values were obtained:
Type in all cases: cell-based
[1] = biological target: T1, Transient receptor potential cation channel subfamily V member 3 (Homo sapiens) (UniProt Q8NET8); assay: Agonist activity at human TRPV3 expressed in HEK293T cells at 30 uM by whole cell patch clamp recordings
T1 sequence (whole entry): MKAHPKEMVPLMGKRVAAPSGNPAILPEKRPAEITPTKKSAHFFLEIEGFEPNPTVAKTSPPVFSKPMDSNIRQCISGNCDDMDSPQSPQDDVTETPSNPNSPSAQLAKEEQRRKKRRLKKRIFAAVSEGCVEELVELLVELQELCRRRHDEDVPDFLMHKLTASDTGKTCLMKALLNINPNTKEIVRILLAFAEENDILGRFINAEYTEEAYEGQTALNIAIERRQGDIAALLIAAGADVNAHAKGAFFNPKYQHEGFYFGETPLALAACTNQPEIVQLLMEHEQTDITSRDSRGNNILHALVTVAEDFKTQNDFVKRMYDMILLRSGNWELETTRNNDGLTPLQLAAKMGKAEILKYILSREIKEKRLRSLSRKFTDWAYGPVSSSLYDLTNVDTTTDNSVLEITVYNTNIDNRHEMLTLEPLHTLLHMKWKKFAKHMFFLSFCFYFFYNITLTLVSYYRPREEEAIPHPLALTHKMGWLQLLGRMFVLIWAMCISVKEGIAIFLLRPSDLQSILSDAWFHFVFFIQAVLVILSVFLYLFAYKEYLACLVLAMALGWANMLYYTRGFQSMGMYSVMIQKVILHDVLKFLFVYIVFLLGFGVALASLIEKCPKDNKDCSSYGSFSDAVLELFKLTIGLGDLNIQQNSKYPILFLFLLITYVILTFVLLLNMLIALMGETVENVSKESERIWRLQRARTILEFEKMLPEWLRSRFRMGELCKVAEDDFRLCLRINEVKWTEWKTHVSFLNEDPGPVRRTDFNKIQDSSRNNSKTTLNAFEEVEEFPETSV

[2] = biological target: Transient receptor potential cation channel subfamily M member 8 (Homo sapiens) (UniProt Q7Z2W7); assay: Agonist activity at human TRPM8 expressed in HEK293T cells at 30 uM by whole cell patch clamp recordings
[3] = biological target: T2, Short transient receptor potential channel 6 (Homo sapiens) (UniProt Q9Y210); assay: Agonist activity at human TRPC6 expressed in HEK293T cells at 30 uM by whole cell patch clamp recordings
T2 sequence (whole entry): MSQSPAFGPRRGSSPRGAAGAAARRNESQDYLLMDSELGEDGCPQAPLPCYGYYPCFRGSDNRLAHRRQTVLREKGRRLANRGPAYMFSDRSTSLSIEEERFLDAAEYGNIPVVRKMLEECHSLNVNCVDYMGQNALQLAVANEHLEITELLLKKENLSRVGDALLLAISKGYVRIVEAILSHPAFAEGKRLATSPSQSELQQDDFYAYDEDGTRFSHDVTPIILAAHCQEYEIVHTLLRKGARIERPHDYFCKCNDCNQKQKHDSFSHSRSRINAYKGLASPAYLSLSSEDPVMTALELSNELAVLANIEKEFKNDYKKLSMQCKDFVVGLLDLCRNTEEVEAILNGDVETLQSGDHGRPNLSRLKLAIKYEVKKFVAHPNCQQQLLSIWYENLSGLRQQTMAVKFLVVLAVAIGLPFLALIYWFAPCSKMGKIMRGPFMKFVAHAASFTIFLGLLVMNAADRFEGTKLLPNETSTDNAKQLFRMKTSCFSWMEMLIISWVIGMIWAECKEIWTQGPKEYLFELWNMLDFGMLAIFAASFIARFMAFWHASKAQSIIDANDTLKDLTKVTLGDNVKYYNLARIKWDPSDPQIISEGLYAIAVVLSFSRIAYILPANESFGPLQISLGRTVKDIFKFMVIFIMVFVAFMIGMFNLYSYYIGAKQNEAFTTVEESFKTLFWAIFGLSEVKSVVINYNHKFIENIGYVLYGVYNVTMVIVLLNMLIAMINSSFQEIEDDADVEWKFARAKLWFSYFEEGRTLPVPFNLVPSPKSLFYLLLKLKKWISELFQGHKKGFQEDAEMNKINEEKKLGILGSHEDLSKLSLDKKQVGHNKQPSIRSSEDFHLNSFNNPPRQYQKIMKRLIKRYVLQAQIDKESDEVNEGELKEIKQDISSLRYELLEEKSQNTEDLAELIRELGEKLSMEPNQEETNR

[4] = biological target: T3, Transient receptor potential cation channel subfamily V member 2 (Mus musculus) (UniProt Q9WTR1); assay: Agonist activity at mouse TRPV2 expressed in HEK293T cells at 30 uM by whole cell patch clamp recordings
T3 sequence (whole entry): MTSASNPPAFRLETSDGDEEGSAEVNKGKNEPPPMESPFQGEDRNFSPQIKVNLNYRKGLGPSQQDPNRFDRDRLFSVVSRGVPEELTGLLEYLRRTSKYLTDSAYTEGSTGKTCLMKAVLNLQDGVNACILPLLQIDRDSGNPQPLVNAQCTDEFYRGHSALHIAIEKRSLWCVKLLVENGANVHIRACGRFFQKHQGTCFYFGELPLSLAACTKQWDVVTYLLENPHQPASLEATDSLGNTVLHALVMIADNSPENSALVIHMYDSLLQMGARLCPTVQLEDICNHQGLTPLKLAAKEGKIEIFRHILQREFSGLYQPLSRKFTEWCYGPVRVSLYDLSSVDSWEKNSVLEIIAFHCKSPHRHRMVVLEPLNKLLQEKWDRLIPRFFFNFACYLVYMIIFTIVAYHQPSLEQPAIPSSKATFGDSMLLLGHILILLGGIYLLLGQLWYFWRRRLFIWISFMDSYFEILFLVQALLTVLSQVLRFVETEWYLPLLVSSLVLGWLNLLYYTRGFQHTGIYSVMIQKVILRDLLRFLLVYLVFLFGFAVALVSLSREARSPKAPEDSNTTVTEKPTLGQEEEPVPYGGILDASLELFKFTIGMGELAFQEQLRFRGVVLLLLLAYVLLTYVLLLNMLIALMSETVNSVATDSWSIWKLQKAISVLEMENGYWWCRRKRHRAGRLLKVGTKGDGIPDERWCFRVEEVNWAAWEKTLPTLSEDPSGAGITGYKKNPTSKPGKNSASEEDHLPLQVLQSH

Activity [1]: inactive | Activity [2]: inactive | Activity [3]: inactive | Activity [4]: inactive
SMILES: CCc1ccc(-c2csc(NCCCOC)n2)cc1
